According to article PMC8957230 (ADMET & DMPK, 2019):
Read-outs that look alike come from different tables or passages of the source.

Tests used:
[1] = Intrinsic dissolution rate; type: physicochemical; settings: 25 °C, 0.5 cm^2
[2] = excess cocrystal in water, 25 °C
[3] = average of two
[4] = Solubility in buffered/non-buffered media; settings: 25 °C; for Solubility: average of three determinations
[5] = initial pH 7.9 phosphate buffer

In the case of ketoconazole-succinic acid cocrystal, the Dissolution rate constant ([1]; buffers, pH 3 phthalate) is reported as 91 μg.min^-1.cm^-2, the Dissolution rate constant ([1]; buffers, pH 4 phthalate) is reported as 65 μg.min^-1.cm^-2 and the Dissolution rate constant ([1]; buffers, pH 5 phthalate) is reported as 48 μg.min^-1.cm^-2. The Dissolution rate constant ([1]; unbuffered media, pH 3 kept constant with HCl or NaOH) was 185 μg.min^-1.cm^-2, the Dissolution rate constant ([1]; unbuffered media, pH 4 kept constant with HCl or NaOH) was 105 μg.min^-1.cm^-2 and the Dissolution rate constant ([1]; unbuffered media, pH 5 kept constant with HCl or NaOH) was 62 μg.min^-1.cm^-2. The “pH of saturated solution in water” value [2] was 4.2, the “Solubility in water (as ketoconazole equivalents)” value ([2]; saturated solution pH 4.1 (fumaric) / 4.2 (succinic)) was 1500 µg/mL and the “pH h=0 (slurry pH)” value ([3]; pH 3 phthalate buffer, initial (bulk) pH 2.93) was 4.38. For the same substance, the “pH h=0 (slurry pH)” value ([3]; pH 4 phthalate buffer, initial (bulk) pH 3.96) was 4.19, the “pH h=0 (slurry pH)” value ([3]; pH 5 neutralized phthalate buffer, initial (bulk) pH 4.97) was 4.40 and the “pH h=0 (slurry pH)” value ([3]; pH 7 phosphate buffer, initial (bulk) pH 6.97) was 4.67. For the same substance, the pH after equilibration ([4]; initial pH 1.1 (0.1 M HCl)) was 2.52± 0.05, the Solubility ([4]; initial pH 1.1 (0.1 M HCl)) was 23990 ± 300 µg/mL and the pH after equilibration ([4]; initial pH 2.1 HCl/KCl buffer) was 3.38 ± 0.00. It also gave a Solubility ([4]; initial pH 2.1 HCl/KCl buffer) of 3690 ± 70 µg/mL, a pH after equilibration ([4]; initial pH 5.0 acetate buffer) of 4.60± 0.02 and a Solubility ([4]; initial pH 5.0 acetate buffer) of 380 ± 30 µg/mL. The pH after equilibration [4, 5] was 7.14 ± 0.01 and the Solubility [4, 5] was 6 ± 1 µg/mL.
